Laboratory results from BindingDB's records for doi:10.1016/0014-2999(96)00122-7 (Synaptic Pharmaceutical, 1996).

By UniProt entry, the sequences of proteins in these tests, tags left out. Where a name states a change or a piece, a line headed by the entry shows the natural chain unless it says otherwise.
UniProt Q62758: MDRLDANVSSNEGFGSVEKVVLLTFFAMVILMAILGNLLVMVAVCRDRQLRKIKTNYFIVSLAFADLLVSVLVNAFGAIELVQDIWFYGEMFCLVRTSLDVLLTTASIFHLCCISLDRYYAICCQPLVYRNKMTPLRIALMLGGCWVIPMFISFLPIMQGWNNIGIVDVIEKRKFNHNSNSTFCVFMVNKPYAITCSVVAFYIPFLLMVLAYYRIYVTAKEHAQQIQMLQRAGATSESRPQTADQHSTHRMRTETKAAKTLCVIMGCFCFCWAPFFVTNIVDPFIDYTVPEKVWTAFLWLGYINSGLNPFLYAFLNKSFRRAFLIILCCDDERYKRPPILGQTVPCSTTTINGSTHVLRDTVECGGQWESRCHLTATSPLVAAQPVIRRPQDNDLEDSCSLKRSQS

Biological target: 5-hydroxytryptamine receptor 4 (Rattus norvegicus, UniProt Q62758)

SMILES: NCCc1c[nH]c2ccc(O)cc12 [[3H]-5-HT]
- Ki: 6.3 nM
